Publication PMC10700596 (Nature Communications, 2023)

Chains of the proteins cited; added tags and fusions are not shown. Lines headed by an entry give the natural chain unless they say otherwise; changes in a name come on top.
UniProt P35408: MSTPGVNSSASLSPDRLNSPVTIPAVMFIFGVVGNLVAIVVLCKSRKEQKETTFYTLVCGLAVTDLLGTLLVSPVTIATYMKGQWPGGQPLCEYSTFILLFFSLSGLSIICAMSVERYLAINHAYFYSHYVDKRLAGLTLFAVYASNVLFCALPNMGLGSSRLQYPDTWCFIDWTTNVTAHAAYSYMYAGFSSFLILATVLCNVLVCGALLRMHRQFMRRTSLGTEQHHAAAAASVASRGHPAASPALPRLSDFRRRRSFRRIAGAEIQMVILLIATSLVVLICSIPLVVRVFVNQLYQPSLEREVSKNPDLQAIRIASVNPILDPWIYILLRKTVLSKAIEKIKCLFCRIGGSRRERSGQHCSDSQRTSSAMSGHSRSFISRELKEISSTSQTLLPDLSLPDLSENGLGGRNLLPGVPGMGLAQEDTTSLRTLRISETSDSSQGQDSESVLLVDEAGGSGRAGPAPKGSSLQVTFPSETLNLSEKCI

Target: wild-type EP4R (Homo sapiens, UniProt P35408)
Assay type: cell-based
Details: relative to 74; Supplementary Data 1

## CN(c1ncnc2[nH]c3ccccc3c12)C1CC2(CCC(C(=O)O)CC2)C1 (stereo not shown) [Compound 76, CN(C1CC2(C1)CCC(CC2)C(=O)O)C=3N=CN=C4NC=5C=CC=CC5C34]
  reduced potency of analog: up to 10 fold
